Only a part is listed here, and it is no random draw. Some tests of the compounds listed are not included; inactive here does not mean inactive elsewhere. Records with an inconclusive call do not appear. The source made the active and inactive calls. Calls follow the shape of the full dose curve.
assay: Primary qHTS Assay for Foot and Mouth Disease Virus Antivirals against NCGC Sytravon and CBC Compound Libraries: Firefly Luciferase Signal; conditions: FMDV antiviral cell assay; at 57.5 µM (top of the series); also: nearly all actives have a fitted effect of over 60% in size
% is scaled to controls: 0 for no effect and ±100 for the full control effect.

Structure (SMILES) | activity change, negative = inhibition
CC(CCN(CCCl)CCCl)c1ccccc1 (stereo not given) | inactive: -21.1%
CN(C)C1(CNC(=O)c2cccc(Cl)c2)CCCCC1 | inactive: -1.77%
CN(C)C1(CNC(=O)c2ccccc2F)CCCCC1 | inactive: -21.7%
CN(C)C1(CNC(=O)c2ccccc2[N+](=O)[O-])CCCCC1 | inactive: -3.59%
CCCCOc1ccccc1C(=O)NCC1(N(C)C)CCCCC1 | inactive: -24.3%
CCOc1ccccc1C(=O)NCC1(N(C)C)CCCCC1 | inactive: 8.91%
CN(C)C1(CNC(=O)c2cccs2)CCCCC1 | inactive: -2.09%
CCOc1cccc(C(=O)NCC2(N(C)C)CCCCC2)c1 | inactive: -16.2%
O=C(NCC1(N2CCOCC2)CCCCC1)c1cc(=O)c2ccccc2o1 | inactive: -4.95%
COc1ccc(C(=O)NCC2(N(C)C)CCCCC2)cc1Cl | inactive: -21.4%
COc1cccc(C(=O)NCC2(N3CCOCC3)CCCCC2)c1 | inactive: -18.8%
CC(C)COc1ccc(C(=O)NCC2(N(C)C)CCCCC2)cc1 | inactive: -15.8%
COc1cc(C(=O)NCC2(N(C)C)CCCCC2)cc(OC)c1OC | inactive: 11.3%
Cc1cccc(C(=O)NCC2(N(C)C)CCCCC2)c1 | inactive: -16.9%
CC(C)Oc1ccc(C(=O)NCC2(N(C)C)CCCCC2)cc1 | inactive: 6.2%
